Values quoted from earlier work, collected in US6586389B1, “Cubilin protein, DNA sequences encoding cubilin and uses thereof” (Administrators of the Tulane Educational Fund, priority 1998, dated 2003).

System: renal brush border membrane
Conditions: cited from earlier work

Question: With “β2-microglobulin: low molecular weight protein competing with light chain” as the substance, how does the “Competition with light chain for brush border membrane binding” value read?
Answer: The value was “competing”.
